Results taken from patent US20170128059A1, “METHODS AND APPARATUS FOR PREVENTION OF SURGICAL SITE INFECTIONS” (priority 2015, published 2017).

Key:
[1] = bolus intravenous injection of 100 mg, healthy patients; cited from earlier work
[2] = intravenous injection, 240 mg; cited from earlier work
[3] = serum and wound tissue gentamicin concentration by ELISA after local delivery through the surgical device; conditions: E-F group

Substance: gentamicin
- maximum blood serum concentration [1]: up to 6 mg/L
- duration of bloodstream concentration above the toxic threshold [2]: about 40 minutes
- mean serum gentamicin concentration ([3]; Time 1): 0.24 ± 0.11 mg/L
- mean serum gentamicin concentration ([3]; Time 2): 0.10 ± 0.05 mg/L
- wound margin tissue concentration relative to corresponding serum levels ([3]; Times 1 and 2): 4-6 ×
